Measured values reported in PubChem BioAssay AID1445 (SRMLSC, 2008).
The entries are a selection whose mix differs from that of the whole data set. Results with a measured potency or affinity are listed apart. Some results for these compounds are left out of this collection, so the calls shown say nothing about other tests. Active and inactive are the calls of the source.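 How the source made its calls: active means primary inhibition above the hit cutoff, then over 50% inhibition at one or more dose response concentrations (cut at about 23% in these data, passing the limit was not always enough); inconclusive means conflicting primary data, or primary hits not chosen for dose response; inactive means low primary inhibition, or under 50% at every dose.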

By UniProt entry, the sequences of proteins in these tests, tags left out.
UniProt O96935, whole entry: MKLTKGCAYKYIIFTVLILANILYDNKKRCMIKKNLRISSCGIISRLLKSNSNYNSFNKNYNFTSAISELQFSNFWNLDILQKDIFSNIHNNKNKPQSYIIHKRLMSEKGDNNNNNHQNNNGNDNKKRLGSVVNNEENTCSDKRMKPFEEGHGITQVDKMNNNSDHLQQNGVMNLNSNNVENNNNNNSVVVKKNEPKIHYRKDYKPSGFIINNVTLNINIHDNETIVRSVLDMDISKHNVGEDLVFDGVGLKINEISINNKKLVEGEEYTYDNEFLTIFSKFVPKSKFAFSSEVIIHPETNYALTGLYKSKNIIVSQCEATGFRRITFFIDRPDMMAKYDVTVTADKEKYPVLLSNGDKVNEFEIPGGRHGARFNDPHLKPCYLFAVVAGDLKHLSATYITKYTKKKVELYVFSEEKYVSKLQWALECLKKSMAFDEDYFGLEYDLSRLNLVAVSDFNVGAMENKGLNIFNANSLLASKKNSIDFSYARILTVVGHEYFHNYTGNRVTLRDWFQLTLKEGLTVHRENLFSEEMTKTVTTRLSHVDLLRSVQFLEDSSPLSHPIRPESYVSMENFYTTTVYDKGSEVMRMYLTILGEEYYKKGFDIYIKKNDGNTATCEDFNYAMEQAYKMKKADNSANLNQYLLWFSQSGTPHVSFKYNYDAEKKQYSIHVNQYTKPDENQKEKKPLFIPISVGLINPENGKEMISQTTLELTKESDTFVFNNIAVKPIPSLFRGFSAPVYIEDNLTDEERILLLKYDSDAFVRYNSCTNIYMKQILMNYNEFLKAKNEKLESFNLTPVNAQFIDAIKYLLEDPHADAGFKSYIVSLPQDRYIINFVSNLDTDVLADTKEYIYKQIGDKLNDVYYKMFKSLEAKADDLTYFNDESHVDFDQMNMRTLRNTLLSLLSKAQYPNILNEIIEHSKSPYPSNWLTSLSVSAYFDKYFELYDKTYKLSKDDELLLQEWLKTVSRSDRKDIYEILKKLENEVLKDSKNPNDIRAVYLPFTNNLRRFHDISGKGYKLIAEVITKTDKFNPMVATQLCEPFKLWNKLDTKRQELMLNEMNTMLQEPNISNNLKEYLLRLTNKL

These compounds were tested against Aminopeptidase N (Plasmodium falciparum (isolate 3D7)) (UniProt O96935) (assay: malaria alanyl aminopeptidase activity blockers – biochemical, fluorogenic H-Leu-NHMec substrate, 1536-well (AID 1445;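 further: plate controls were DMSO full reaction for no effect and no enzyme background for full effect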)). Details: recombinant M1AAP, H-Leu-NHMec fluorogenic kinetic assay; at 30 µM; active compounds read high.
In the case of CCN1CCCC(OC(=O)C2(O)c3ccccc3C=Cc3ccccc32)C1 (stereo unspecified), the inhibition is reported as inactive: 7.18%.
In the case of C=CCN1CCN(CCOC(=O)C(O)(c2ccccc2)c2ccccc2)CC1, the inhibition is reported as inactive: -1.58%.
CN(C)C1CCCC1OC(=O)C(O)(c1ccccc1)c1ccccc1 (stereo unspecified) was tested, and the inhibition was inactive: 2.62%.
In the case of Cc1ccccc1C(=O)NCC1(N2CCCCC2)CCCCC1, the inhibition is reported as inactive: 4.3%.
In the case of CC(C)N1C(=O)CC2(CCN(CCOC(=O)C(O)(c3ccccc3)c3ccccc3)CC2)C1=O, the inhibition is reported as inactive: -1.71%.
With CCN(CC)CC(C)C(C)OC(=O)C(O)(c1ccccc1)c1ccccc1 (stereo unspecified) the inhibition was inactive: -0.19%.
With O=C(NCC1(N2CCCCC2)CCCCC1)c1cc([N+](=O)[O-])ccc1Cl the inhibition was inactive: 13.3%.
For CN(C)c1cccc(C(=O)NCC2(N(C)C)CCCCC2)c1, the inhibition was inactive: 2.49%.
For COc1ccc(Br)c(C(=O)NCC2(N3CCCCC3)CCCCC2)c1, the inhibition was inactive: -0.69%.
O=C(OC1CN2CCC1CC2)C(CO)(c1ccccc1)c1ccccc1 (stereo unspecified) was tested, and the inhibition was inactive: 2.55%.
For COc1cccc(C(=O)NCC2(N3CCCCC3)CCCCC2)c1, the inhibition was inactive: -3.06%.
